Measured values published in EPA's ToxValDB 9.5.

System: Rattus norvegicus
Settings: acute; oral

CC(O)C(=O)O (stereo unspecified) [Lactic acid]
LD50: ≤ 4940 mg/kg
